Reference: patent publication US8852559B2 (Colgate-Palmolive Company, priority 2009, dated 2014)

Test system: A. viscosus
Test: Inhibition of growth of A. viscosus
Conditions: dentifrice at increased pH

Structure (SMILES): Cc1ccc([B-]2(c3ccc(C)c(Cl)c3)OC(=O)c3ncccc3[OH+]2)cc1Cl [Compound 1]
- antibacterial effect as measured by growth inhibition of A. viscosus: comparable to that of the pH 7 paste as well as commercial high quality toothpaste
